Data reported in patent publication US20090264298A1, “Methods for enriching subpopulations” (AMBERGEN, Inc., priority 2007, published 2009).

What was measured:
ZAP-70 tyrosine kinase = biological target: T1, ZAP-70 tyrosine kinase (Homo sapiens, UniProt P43403); experiment: Kinase substrate profiling on contact photo-transferred protein microarray, ZAP-70; type: biochemical; settings: plus ATP kinase reaction 30 min 37° C.; anti-phosphotyrosine detection
T1 construct: purchased Invitrogen Corporation
T1 sequence (P43403 1-619): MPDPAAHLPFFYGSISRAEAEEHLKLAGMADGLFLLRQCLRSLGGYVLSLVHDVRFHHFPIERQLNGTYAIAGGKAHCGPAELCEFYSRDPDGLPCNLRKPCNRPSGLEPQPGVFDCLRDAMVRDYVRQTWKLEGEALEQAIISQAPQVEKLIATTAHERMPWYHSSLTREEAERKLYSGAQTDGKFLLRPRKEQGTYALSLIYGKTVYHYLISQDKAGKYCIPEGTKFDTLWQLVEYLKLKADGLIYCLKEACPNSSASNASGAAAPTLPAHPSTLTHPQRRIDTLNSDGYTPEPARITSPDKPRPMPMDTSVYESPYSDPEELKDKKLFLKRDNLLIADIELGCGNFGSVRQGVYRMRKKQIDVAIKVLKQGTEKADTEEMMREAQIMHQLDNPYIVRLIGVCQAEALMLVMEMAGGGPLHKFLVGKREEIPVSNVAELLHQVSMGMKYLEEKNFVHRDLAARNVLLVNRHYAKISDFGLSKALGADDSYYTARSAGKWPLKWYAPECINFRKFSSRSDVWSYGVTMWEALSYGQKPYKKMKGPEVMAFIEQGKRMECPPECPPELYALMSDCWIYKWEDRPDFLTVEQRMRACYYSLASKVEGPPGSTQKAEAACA

[1] = biological target: T2, Src pp^60 tyrosine kinase (Homo sapiens, UniProt P12931); experiment: Kinase substrate profiling on contact photo-transferred protein microarray, Src pp^60; type: biochemical; settings: plus ATP kinase reaction 30 min 37° C.; anti-phosphotyrosine detection
T2 construct: purchased Invitrogen Corporation

Substance: MDM: ubiquitin-protein ligase E3 MDM2, human, cell-free expressed, PC-biotin labeled
- phosphorylation of photo-transferred protein (substrate) by ZAP-70 (ZAP-70 tyrosine kinase): heavily phosphorylate
- phosphorylation of photo-transferred protein (substrate) by Src pp^60 [1]: heavily phosphorylate
